Experimental findings from PMC4789100 (Environment international, 2009) are described below.

“Also recorded” adds a separate entry of the source. Read-outs that look alike come from different tables or passages of the source.

For this experiment, the target named is T1, sheep placental cytosolic estrogen sulfotransferase (estradiol as substrate) (Ovis aries, UniProt A0ACI6NYW9).
T1 sequence (A0ACI6NYW9 1-296): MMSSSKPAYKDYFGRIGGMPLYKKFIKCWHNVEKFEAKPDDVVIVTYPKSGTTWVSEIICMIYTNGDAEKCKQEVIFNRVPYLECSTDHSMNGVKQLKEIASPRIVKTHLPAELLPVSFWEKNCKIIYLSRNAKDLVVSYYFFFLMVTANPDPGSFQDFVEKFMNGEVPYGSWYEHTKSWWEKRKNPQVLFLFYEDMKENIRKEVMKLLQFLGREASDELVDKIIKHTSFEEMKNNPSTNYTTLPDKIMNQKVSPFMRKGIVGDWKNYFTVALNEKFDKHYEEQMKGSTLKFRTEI
It counts as biochemical.

As for `Oc1cc(Cl)ccc1Oc1ccc(Cl)cc1Cl` [Triclosan, 5-chloro-2(2,4-dichlorophenoxy)-phenol], the “Difference in inhibitory potency between Kic and Kiu” value was determined as 50 fold; the “Mechanism of inhibition of estradiol sulfonation” value is listed as “mixed competitive/uncompetitive; also recorded: mixed inhibition”. Where the note is “Triclosan 0.1 nM, placental sample SH1”, the “Vmax for estradiol sulfonation” value came out at 35.2 pmol/min/mg. Besides, the “Vmax for estradiol sulfonation” value (Triclosan 0.1 nM, placental sample SH2) is reported as 22.4 pmol/min/mg. Besides, the “Vmax for estradiol sulfonation” value (Triclosan 0.1 nM, placental sample SH3) is listed as 37.4 pmol/min/mg. For the same molecule, the “Vmax for estradiol sulfonation” value (Triclosan 0.5 nM, placental sample SH1) was found to be 31.6 pmol/min/mg. For the same molecule, the “Vmax for estradiol sulfonation” value (Triclosan 0.5 nM, placental sample SH2) is 22.7 pmol/min/mg. Also, the “Vmax for estradiol sulfonation” value (Triclosan 0.5 nM, placental sample SH3) is listed as 32.4 pmol/min/mg. The “Vmax for estradiol sulfonation” value (Triclosan 1.0 nM, placental sample SH1) is on record as 26.0 pmol/min/mg. Moreover, under “Triclosan 1.0 nM, placental sample SH2”, the “Vmax for estradiol sulfonation” value is 20.9 pmol/min/mg. For the same molecule, the “Vmax for estradiol sulfonation” value (Triclosan 1.0 nM, placental sample SH3) amounted to 31.6 pmol/min/mg. Moreover, the “Vmax for estradiol sulfonation” value (Triclosan 2.0 nM, placental sample SH1) is given as 19.9 pmol/min/mg. The “Vmax for estradiol sulfonation” value (Triclosan 2.0 nM, placental sample SH3) turned out to be 27.1 pmol/min/mg. For the same molecule, the “Vmax for estradiol sulfonation” value (Triclosan 2.5 nM, placental sample SH2) is 17.6 pmol/min/mg. Also, the “Vmax for estradiol sulfonation” value (Triclosan 2.5 nM, placental sample SH3) is listed as 26.5 pmol/min/mg. In addition, the “Kiu, uncompetitive inhibitory constant” value (estradiol 0.1-6 nM, mean±S.D., n=3 individuals) came out at 5.2 ± 2.9 nM.
